US12100485B2, “Machine learning and molecular simulation based methods for enhancing binding and activity prediction” (The Board of Trustees of the Leland Stanford Junior …, priority 2018, dated 2024)

Sequences of proteins named here, by UniProt entry; tags and fusion partners are left off.
UniProt P42866, whole entry: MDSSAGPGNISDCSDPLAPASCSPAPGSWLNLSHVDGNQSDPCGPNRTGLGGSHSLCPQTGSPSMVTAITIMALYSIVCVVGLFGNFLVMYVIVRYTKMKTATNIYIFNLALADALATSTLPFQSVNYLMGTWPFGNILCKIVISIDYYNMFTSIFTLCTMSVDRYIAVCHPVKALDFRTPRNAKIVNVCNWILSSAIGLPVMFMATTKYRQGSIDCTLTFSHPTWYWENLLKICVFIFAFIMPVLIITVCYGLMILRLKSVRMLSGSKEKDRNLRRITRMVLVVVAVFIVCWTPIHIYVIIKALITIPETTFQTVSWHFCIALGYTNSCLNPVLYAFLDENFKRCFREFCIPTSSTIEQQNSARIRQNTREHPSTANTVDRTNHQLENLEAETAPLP

What was measured:
MOR-1 [1] = molecular target: T1, MOR-1 (Mus musculus, UniProt P42866); test: [35S]GTPγS functional assays
Description: (§1) Thirty available, highest scoring compounds were experimentally assayed. […] One compound, FMP4, has a unique structure: no basic amine or phenol. In further binding assays in opioid transfected cell lines, FMP4 has a binding affinity of 3217±153 nM, 2503±523 nM, and 8143±1398 nM at MOR-1, KOR-1, and DOR-1 respectively. FMP4 is also a weak MOR-1 partial agonist in [35S]GTPγS functional assays. FMP4 is distinct from known opioid agonists and antagonists, with a maximum Tanimoto score of 0.44 compared to other known agonists and antagonists for the μOR. FMP4-like compounds in the same data set were characterized in binding assays and two compounds FMP1 and FMP16 show <10 μM affinity at MOR-1.

MOR-1 [2] = molecular target: T1, MOR-1; test: Competition binding against 125I-IBNtxA in membranes from CHO cells expressing cloned opioid receptor; conditions: single dose 10 μM concentration
Description: as §1
Each panel is a representative experiment that has been independently replicated at least three times. FIGS. 8A-8D illustrate structures and molecular weights for FMP1-FMP32.
Error bars represent the SEM of triplicate samples. Error bars that cannot be seen are smaller than the size of the symbol. FMP4 had 3217±153 nM, 2503±523 nM and 8143±1398 nM affinity at MOR-1, KOR-1 and DOR-1 respectively.

Row | Compound | MOR-1 functional activity in [35S]GTPγS assays (MOR-1 [1]) | Inhibition of 125IBNtxA specific binding at MOR-1 (MOR-1 [2]) [%]
1 | Cc1ccccc1OCCCCCCc1c(C)n[nH]c1C | weak MOR-1 partial agonist | 30
2 | Cc1ccccc1OCCCCCN1CCCCC1 | – | 30
3 | Cc1ccc(OCCCCCCc2c(C)n[nH]c2C)cc1 | – | 30
